Laboratory results taken from patent publication US20240108744A1, “AURISTATIN DERIVATIVES AND CONJUGATES THEREOF” (priority 2022, published 2024).

Tests used:
BR 474 = experiment: In vitro cytotoxicity (CCK-8) in BR 474 cells; assay type: cell-based, human; conditions: BR 474 cell line, 120 hours incubation
Protocol: (§1) Cytotoxic potencies of the compounds are assessed in flat-bottomed 96-well cell culture plates (Corning Costar) using cell counting Kit-8 (CCK-8) assay (Shanghai Life Lab Biotech Co., Ltd.). Briefly, human tumor cells (1,000-10,000 cells/well, depending on the cell line), in the appropriate culture medium are incubated, with the compounds, or with conjugates in the presence or absence of an excess of the corresponding unconjugated antibodies, for 120 hours, at 37° C., 5% CO2.
(§2) Dispensed 175 μL cell suspension in 96-well plate at 1500 cells per well and incubate for 24 hours in a humidified incubator (37° C., 5% CO2). Added 25 μL various concentrations of compound as a 5× solution into the cell culture medium (Fetal bovine serum, Invitrogen) in the plate and incubated for 120 hours in the incubator. Thawed CCK-8 on the bench top or in a 37° C. water bath, added 10 μL of CCK-8 to each well of the incubated plate (be careful not introducing air bubbles into the wells since they would interfere with the O. D. reading) and then further incubated for 1-4 hours in the incubator. Measured the absorbance at 450 nm using a SpectraMax i3x Microplate Reader and calculated the cell inhibition rate. The IC50 curves were generated along with the IC50 values by using GraphPad Prism software.

NCI-N87 = experiment: In vitro cytotoxicity (CCK-8) in NCI-N87 cells; assay type: cell-based, human; conditions: NCI-N87 cell line, 120 hours incubation
Protocol: as §1, §2

NCI-N87 tumor cells = experiment: In vivo efficacy of the ADCs in NCI-N87 CDX model; design: species or system mouse
JIMT-1 tumor cells = experiment: In vivo efficacy of the ADCs in JIMT-1 CDX model; design: species or system mouse; conditions: for TGI (%) (day 28): Scid-Beige mice
[1] = 0.3 mg/Kg single i.v., day 28 (Table 8)
[2] = 1 mg/Kg single i.v., day 28 (Table 8)
[3] = 1 mg/Kg single i.v., day 28 (Table 9)
[4] = 3 mg/Kg single i.v., day 28 (Table 9)

Row | Substance | IC50 (BR 474) [nM] | IC50 (NCI-N87) [nM] | Comments (NCI-N87 tumor cells; 0.3 mg/Kg single i.v., day 30 (Table 6)) | Comments (NCI-N87 tumor cells; 1 mg/Kg single i.v., day 30 (Table 6)) | antitumor activity (NCI-N87 tumor cells; 0.3, 1 and/or 3 mg/kg, FIG. 1) | TGI (%) (day 30) (NCI-N87 tumor cells; Balb/c-Nude mice, 0.3 mg/Kg single i.v., day 30 (Table 6)) | Comments (JIMT-1 tumor cells; [1]) | Comments (JIMT-1 tumor cells; [2]) | antitumor activity (JIMT-1 tumor cells; 0.3, 1 and/or 3 mg/kg, FIG. 3) | TGI (%) (day 28) (JIMT-1 tumor cells; [1]) | TGI (%) (day 28) (JIMT-1 tumor cells; [2]) | Comments (NCI-N87 tumor cells; 1 mg/Kg single i.v., day 44 (Table 7)) | Comments (NCI-N87 tumor cells; 3 mg/Kg single i.v., day 44 (Table 7)) | antitumor activity (NCI-N87 tumor cells; 1 & 3 mg/kg, FIG. 2) | TGI (%) (day 44) (NCI-N87 tumor cells; Balb/c-Nude mice, 1 mg/Kg single i.v., day 44 (Table 7)) | Comments (JIMT-1 tumor cells; [3]) | Comments (JIMT-1 tumor cells; [4]) | antitumor activity (JIMT-1 tumor cells; 1 & 3 mg/kg, FIG. 4) | TGI (%) (day 28) (JIMT-1 tumor cells; [3]) | TGI (%) (day 28) (JIMT-1 tumor cells; [4])
1 | trastuzumab-vedotin-DAR4: trastuzumab vedotin ADC with DAR4, comparator in Table 5 [reference compound] | 0.055 | 0.08 |  |  |  |  |  |  |  |  |  |  |  |  |  |  |  |  |  | 
2 | trastuzumab meditecan (DAR8) [reference compound] | > 1000 | 2.5 | inactive | active | dose-dependent antitumor activity | 37.1 | inactive | active | dose-dependent antitumor activity | 20.8 | 56.8 |  |  |  |  |  |  |  |  | 
3 | trastuzumab-MB3-DAR4 [reference compound] |  |  |  |  |  |  |  |  |  |  |  | active | highly active | dose-dependent antitumor activity | 68.6 | inactive | inactive | dose-dependent antitumor activity | 19.4 | 30.0
